Experimental data from article PMC10874388, “Cyclic peptides discriminate BCL-2 and its clinical mutants from BCL-XL by engaging a single-residue discrepancy” (Nature Communications, 2024).

The chains behind the UniProt entries cited, without tags or fusion partners. A line that says so, or that is headed by a name, gives the form on record, which may keep a tag or linker.
UniProt P10415, with tags, fused parts or gaps with the stated changes: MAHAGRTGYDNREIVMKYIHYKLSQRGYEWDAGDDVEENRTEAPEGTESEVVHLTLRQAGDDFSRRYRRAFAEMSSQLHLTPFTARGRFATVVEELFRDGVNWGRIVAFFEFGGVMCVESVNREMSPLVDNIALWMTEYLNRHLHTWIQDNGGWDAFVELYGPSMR

Target: T1, BCL-2-D111A (Homo sapiens, UniProt P10415, D111A/DEL35-91/INS34DVEENRTEAPEGTESE)
T1 construct: A chimeric human BCL-2 (including residues 1–50 and 92–207) was constructed; SUMO (pET28a-Sumo vector); made in house; host or cells: E. coli BL21 (DE3)
Assay: SPR binding assay, BCL-2 D111A mutant
Settings: affinity fitting, mean ± SD of three independent experiments

Structure (SMILES): O=C(c1cc(-c2cc3c(cc2C(=O)N2Cc4ccccc4C[C@H]2CN2CCOCC2)OCO3)n2c1CCCC2)N(c1ccccc1)c1ccc(O)cc1 [S55746]
- Kd: 6 ± 3 nM
